Data: the Kinase Knowledgebase extract (Sharma et al. 2016)
pIC50: −log10 of the molar value.

Protein sequences, listed by entry. Tags and fused reporters are not part of them.
EGFR (human), P00533, UniProt P00533, whole entry L858R, looked up: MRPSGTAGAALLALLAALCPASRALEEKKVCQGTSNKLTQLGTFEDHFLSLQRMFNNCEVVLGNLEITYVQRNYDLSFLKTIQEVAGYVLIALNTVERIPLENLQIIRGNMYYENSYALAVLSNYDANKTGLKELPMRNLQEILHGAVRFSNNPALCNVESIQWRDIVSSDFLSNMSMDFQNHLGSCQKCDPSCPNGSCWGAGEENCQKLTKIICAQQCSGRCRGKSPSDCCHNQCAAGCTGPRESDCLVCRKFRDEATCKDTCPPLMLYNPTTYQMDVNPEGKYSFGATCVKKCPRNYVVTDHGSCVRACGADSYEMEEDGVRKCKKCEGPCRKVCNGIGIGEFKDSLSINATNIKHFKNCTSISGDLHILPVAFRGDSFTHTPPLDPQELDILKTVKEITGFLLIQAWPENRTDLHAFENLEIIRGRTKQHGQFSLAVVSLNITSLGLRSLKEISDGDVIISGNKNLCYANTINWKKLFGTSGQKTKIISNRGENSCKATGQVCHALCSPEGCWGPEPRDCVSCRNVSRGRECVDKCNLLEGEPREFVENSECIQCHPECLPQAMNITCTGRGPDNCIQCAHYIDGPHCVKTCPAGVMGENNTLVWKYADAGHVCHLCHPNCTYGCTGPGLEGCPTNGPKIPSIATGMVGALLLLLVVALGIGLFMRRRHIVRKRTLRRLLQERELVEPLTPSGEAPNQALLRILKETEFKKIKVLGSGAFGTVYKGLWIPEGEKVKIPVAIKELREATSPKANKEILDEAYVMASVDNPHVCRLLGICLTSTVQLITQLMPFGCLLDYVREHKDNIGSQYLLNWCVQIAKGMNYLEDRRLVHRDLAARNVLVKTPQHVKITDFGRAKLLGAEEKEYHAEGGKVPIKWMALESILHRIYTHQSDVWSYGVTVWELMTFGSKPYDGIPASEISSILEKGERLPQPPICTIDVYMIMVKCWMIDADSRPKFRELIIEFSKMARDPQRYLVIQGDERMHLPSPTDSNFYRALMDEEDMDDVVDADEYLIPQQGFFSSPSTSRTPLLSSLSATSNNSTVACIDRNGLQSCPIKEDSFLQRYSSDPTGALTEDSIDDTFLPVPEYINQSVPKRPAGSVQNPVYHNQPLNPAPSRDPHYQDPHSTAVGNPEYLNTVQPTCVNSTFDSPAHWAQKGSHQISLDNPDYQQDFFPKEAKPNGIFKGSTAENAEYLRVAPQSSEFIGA
EGFR (Human), P00533, UniProt P00533, whole entry T790M/L858R, looked up: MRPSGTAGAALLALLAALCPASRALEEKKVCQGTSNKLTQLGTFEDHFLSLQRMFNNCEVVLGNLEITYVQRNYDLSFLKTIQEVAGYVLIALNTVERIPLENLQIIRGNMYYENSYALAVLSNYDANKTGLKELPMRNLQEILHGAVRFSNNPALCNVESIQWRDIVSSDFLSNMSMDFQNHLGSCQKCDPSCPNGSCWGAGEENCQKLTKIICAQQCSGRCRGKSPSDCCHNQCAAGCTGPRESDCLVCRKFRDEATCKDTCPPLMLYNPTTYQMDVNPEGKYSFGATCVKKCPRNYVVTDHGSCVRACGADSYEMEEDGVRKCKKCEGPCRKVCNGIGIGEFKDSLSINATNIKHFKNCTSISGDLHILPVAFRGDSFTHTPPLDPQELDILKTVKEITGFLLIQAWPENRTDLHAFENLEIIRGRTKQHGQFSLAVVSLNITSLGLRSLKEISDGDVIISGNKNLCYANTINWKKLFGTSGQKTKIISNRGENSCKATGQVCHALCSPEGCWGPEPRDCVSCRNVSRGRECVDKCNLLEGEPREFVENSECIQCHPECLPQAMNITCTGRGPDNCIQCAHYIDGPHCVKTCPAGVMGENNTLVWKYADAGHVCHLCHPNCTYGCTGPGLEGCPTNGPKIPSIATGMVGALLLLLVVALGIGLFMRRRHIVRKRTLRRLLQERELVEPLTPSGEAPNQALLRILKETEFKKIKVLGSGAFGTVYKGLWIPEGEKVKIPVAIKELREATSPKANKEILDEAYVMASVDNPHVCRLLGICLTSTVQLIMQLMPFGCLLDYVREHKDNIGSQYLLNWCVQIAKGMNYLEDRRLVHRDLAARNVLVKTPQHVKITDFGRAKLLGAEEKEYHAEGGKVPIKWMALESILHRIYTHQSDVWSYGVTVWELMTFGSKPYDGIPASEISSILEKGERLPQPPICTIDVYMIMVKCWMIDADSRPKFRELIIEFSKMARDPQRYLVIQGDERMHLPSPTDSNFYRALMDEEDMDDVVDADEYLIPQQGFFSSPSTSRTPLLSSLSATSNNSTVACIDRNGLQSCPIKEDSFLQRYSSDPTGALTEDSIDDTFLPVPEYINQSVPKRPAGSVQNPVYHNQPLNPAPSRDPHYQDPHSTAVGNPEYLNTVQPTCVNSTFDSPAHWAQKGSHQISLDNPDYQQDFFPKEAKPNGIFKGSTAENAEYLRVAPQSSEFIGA
EGFR (human), P00533, UniProt P00533, whole entry T790M, looked up: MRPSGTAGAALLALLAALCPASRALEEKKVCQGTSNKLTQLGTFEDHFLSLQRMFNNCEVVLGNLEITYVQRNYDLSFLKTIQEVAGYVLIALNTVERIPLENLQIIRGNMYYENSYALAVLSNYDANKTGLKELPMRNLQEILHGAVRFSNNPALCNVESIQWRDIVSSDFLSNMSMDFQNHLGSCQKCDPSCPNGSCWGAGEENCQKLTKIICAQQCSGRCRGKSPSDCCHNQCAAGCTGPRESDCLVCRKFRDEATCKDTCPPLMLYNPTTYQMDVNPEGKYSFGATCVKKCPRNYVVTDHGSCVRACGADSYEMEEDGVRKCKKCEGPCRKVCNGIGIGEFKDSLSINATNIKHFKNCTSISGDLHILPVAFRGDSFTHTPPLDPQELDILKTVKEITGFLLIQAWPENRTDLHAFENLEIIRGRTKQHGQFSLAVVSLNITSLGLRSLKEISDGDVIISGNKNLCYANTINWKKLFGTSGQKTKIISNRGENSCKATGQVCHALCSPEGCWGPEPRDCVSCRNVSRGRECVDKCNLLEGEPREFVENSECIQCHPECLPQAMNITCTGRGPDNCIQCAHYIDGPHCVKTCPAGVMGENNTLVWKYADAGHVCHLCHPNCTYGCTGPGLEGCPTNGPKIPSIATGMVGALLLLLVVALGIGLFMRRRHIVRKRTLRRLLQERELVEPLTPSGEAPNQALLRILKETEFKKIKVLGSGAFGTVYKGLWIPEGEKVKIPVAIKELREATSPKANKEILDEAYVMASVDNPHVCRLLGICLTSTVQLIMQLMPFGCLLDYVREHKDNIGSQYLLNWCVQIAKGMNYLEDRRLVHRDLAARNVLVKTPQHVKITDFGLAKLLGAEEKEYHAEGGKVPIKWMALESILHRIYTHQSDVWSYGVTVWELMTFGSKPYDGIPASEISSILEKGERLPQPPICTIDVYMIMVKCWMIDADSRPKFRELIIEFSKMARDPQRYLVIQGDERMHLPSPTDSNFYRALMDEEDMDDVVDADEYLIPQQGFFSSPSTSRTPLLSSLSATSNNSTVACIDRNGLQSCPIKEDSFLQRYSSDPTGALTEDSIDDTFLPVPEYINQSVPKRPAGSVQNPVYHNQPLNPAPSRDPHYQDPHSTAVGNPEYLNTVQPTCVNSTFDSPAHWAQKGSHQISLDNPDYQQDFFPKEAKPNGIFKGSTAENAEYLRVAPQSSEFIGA
EGFR (human), P00533, UniProt P00533, whole entry, looked up: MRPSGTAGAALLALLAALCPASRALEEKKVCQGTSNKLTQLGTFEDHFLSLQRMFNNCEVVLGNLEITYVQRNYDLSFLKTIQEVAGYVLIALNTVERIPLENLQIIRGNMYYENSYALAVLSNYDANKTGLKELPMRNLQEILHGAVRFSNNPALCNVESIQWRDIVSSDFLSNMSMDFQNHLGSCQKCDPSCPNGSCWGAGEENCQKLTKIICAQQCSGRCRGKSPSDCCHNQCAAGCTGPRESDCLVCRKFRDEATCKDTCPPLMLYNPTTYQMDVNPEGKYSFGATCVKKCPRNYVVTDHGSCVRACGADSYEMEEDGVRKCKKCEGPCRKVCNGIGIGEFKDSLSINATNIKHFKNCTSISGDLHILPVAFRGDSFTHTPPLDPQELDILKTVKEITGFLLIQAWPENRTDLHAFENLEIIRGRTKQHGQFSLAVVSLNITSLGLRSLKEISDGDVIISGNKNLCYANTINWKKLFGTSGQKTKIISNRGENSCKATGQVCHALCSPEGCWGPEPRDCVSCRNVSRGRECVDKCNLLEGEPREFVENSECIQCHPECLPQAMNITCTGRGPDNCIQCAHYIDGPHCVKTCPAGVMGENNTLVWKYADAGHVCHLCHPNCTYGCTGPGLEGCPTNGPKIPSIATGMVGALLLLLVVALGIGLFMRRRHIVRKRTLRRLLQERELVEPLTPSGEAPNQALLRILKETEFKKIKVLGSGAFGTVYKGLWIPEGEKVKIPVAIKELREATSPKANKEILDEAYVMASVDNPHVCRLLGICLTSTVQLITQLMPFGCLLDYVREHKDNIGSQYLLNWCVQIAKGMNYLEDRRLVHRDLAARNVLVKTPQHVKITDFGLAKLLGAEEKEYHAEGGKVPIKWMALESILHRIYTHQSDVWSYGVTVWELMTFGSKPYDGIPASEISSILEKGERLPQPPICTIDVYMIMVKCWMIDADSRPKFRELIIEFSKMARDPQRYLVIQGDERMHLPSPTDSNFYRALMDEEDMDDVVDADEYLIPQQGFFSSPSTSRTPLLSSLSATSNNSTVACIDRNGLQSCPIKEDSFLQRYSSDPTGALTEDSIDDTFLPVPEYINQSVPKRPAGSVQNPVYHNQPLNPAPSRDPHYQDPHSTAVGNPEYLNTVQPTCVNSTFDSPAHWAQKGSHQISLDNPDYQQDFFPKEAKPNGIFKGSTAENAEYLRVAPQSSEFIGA

How the values were obtained:
[1] = molecular target: EGFR (human), P00533 [L858R]
[2] = molecular target: EGFR (Human), P00533 [T790M/L858R]
[3] = molecular target: EGFR (human), P00533 [T790M]
[4] = molecular target: EGFR (human), P00533 [WT]; conditions: a549

| pIC50 [4] | SMILES | pIC50 [1] | pIC50 [2] | pIC50 [3] |
| --- | --- | --- | --- | --- |
|  | C=CC(=O)Nc1cc(Nc2ncc(Cl)c(Nc3ccccc3C(=O)C(=O)N(C)C)n2)c(OC)cc1N1CCN(C)CC1 | 6.37 | 7.81 | 7.80 |
| 6.13 | COc1cc(Nc2ncc(Cl)c(Nc3ccccc3C(=O)C(=O)N(C)C)n2)ccc1N1CCN(C)CC1 |  |  |  |
